What was measured:
porcine AVs = assay: Calcification of porcine AVs sheared in fibrosa or ventricularis flow in osteogenic media (Arsenazo); conditions: 20 μM, 7 days
HIF1alpha = HIF1alpha expression in porcine AVs in osteogenic media; conditions: 20 μM every three days
porcine AV leaflets = assay: Calcification of porcine AV leaflets cultured in osteogenic media, static (Alizarin Red, Arsenazo); conditions: 20 μM every three days, osteogenic media

## N[C@@H](Cc1ccc([N+]([O-])(CCCl)CCCl)cc1)C(=O)O
Porcine AVs
  total calcium levels in PAVs compared to vehicle control (Arsenazo assay): significantly decreased
HIF1alpha
  HIF1alpha expression: significantly decreased
Porcine AV leaflets
  AV calcification (Alizarin red, Arsenazo): dramatic inhibition

Reference: patent US11976279B2, “Methods and compositions for managing vascular conditions using miR-483 mimics and HIF1alpha pathway inhibitors” (dated 2024)
